Results taken from article PMC6553764 (PLoS ONE, 2019).

Key:
Conditions in all cases: both partners purified
[1] = target: T1, Kap95 (UniProt Q06142 1-861); experiment: SPR; FSFG6 immobilised via C-terminal Cys (GLC chip), low density 415 RU; association 15 s; 100 ul/min, TBT-PVP, 25 C; fit: one-to-one model
T1 construct: Kap95, a karyopherin transport factor; also called Kap95 without the GST domain
T1 sequence (looked up): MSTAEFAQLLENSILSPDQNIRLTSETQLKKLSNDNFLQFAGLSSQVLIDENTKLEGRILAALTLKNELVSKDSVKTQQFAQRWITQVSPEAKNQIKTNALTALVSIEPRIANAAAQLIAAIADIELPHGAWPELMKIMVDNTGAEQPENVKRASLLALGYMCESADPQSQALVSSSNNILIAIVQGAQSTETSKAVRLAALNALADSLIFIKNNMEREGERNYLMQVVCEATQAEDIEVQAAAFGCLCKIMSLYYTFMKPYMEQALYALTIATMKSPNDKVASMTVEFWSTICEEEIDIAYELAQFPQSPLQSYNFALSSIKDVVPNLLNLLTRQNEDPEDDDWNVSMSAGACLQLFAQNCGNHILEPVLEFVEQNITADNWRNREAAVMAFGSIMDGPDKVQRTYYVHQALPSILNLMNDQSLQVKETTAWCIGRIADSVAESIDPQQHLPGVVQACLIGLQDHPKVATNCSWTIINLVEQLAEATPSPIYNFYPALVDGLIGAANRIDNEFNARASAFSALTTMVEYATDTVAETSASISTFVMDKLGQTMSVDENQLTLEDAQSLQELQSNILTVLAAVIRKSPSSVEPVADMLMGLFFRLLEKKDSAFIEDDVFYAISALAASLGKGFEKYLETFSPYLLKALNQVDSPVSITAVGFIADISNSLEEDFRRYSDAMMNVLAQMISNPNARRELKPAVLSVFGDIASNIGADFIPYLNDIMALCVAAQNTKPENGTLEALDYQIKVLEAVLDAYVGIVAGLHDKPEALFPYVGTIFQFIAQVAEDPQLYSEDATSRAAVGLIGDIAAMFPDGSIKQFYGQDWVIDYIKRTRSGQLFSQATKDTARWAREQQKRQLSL

[2] = target: T1, Kap95; experiment: SPR; FSFG6 immobilised via C-terminal Cys (GLC chip), low density 415 RU; association 30 s; 100 ul/min, TBT-PVP, 25 C; fit: one-to-one model
[3] = target: T1, Kap95; experiment: SPR; FSFG6 immobilised via C-terminal Cys (GLC chip), high density 791 RU; association 15 s; 100 ul/min, TBT-PVP, 25 C; fit: one-to-one model
[4] = target: T1, Kap95; experiment: SPR; FSFG6 immobilised via C-terminal Cys (GLC chip), low density 415 RU; association 120 s; 100 ul/min, TBT-PVP, 25 C; fit: one-to-one model
[5] = target: T1, Kap95; experiment: SPR; FSFG6 immobilised via C-terminal Cys (GLC chip), low density 415 RU; association 15 s; 100 ul/min, TBT-PVP, 25 C; Langmuir isotherm analysis
[6] = target: T1, Kap95; experiment: SPR; FSFG6 immobilised via C-terminal Cys (GLC chip), high density 791 RU; association 120 s; 100 ul/min, TBT-PVP, 25 C; Langmuir isotherm analysis
[7] = target: T1, Kap95; experiment: SPR; FSFG6 immobilised via C-terminal Cys (GLC chip), medium density 550 RU; association 30 s; 100 ul/min, TBT-PVP, 25 C; Langmuir isotherm analysis
[8] = target: T1, Kap95; experiment: SPR; FSFG6 immobilised via C-terminal Cys (GLC chip), medium density 550 RU; association 60 s; 100 ul/min, TBT-PVP, 25 C; Langmuir isotherm analysis
[9] = target: T1, Kap95; experiment: SPR; FSFG6 immobilised via C-terminal Cys (GLC chip), high density 791 RU; association 30 s; 100 ul/min, TBT-PVP, 25 C; fit: one-to-one plus mass transport limitation model
[10] = target: T1, Kap95; experiment: SPR; FSFG6 immobilised via C-terminal Cys (GLC chip), high density 791 RU; association 60 s; 100 ul/min, TBT-PVP, 25 C; fit: one-to-one plus mass transport limitation model
[11] = target: T1, Kap95; experiment: SPR; FSFG6 immobilised via C-terminal Cys (GLC chip), high density 791 RU; association 120 s; 100 ul/min, TBT-PVP, 25 C; fit: one-to-one plus mass transport limitation model
[12] = target: T1, Kap95; experiment: SPR; FSFG6 immobilised via C-terminal Cys (GLC chip), medium density 550 RU; association 15 s; 100 ul/min, TBT-PVP, 25 C; fit: one-to-one plus mass transport limitation model
[13] = target: T1, Kap95; experiment: SPR; FSFG6 immobilised via C-terminal Cys (GLC chip), medium density 550 RU; association 30 s; 100 ul/min, TBT-PVP, 25 C; fit: one-to-one plus mass transport limitation model
[14] = target: T1, Kap95; experiment: SPR; FSFG6 immobilised via C-terminal Cys (GLC chip), medium density 550 RU; association 120 s; 100 ul/min, TBT-PVP, 25 C; fit: one-to-one plus mass transport limitation model

B1: FSFG6-Cys-His6 (domain or fragment)
chain: not shown
modifications: conjugated to the sensor surface through the C-terminal cysteine (maleimide)
notes: Segment of Nsp1FG (S. cerevisiae Nsp1) with six repeats of the FxFG-type region, followed by an added Cys, LE and His6
In the case of B1, the Kd [1] is reported as 3.42 nM, the koff [1] is reported as 0.0037 s⁻¹ and the kon [1] is reported as 1.08e+06 M⁻¹ s⁻¹. It also gave a Kd [2] of 5.65 nM, a koff [2] of 0.00301 s⁻¹ and a kon [2] of 532000 M⁻¹ s⁻¹. It also gave a Kd [3] of 0.87 nM, a koff [3] of 0.00209 s⁻¹ and a kon [3] of 2.41e+06 M⁻¹ s⁻¹. For the same binder, the Kd [4] was 8.14 nM, the koff [4] was 0.00261 s⁻¹ and the kon [4] was 321000 M⁻¹ s⁻¹. For the same binder, the Kd [5] was 64.2 nM, the Kd [6] was 22.4 nM and the Kd [7] was 63.5 nM. The Kd [8] was 30.8 nM, the Kd [9] was 0.76 nM and the koff [9] was 0.0027 s⁻¹. It also gave a kon [9] of 3.57e+06 M⁻¹ s⁻¹, a Kd [10] of 1.11 nM and a koff [10] of 0.00314 s⁻¹. The kon [10] was 2.83e+06 M⁻¹ s⁻¹, the Kd [11] was 1.65 nM and the koff [11] was 0.00275 s⁻¹. For the same binder, the kon [11] was 1.66e+06 M⁻¹ s⁻¹, the Kd [12] was 1.82 nM and the koff [12] was 0.00465 s⁻¹. For the same binder, the kon [12] was 2.56e+06 M⁻¹ s⁻¹, the Kd [13] was 0.74 nM and the koff [13] was 0.0033 s⁻¹. The kon [13] was 4.45e+06 M⁻¹ s⁻¹, the Kd [14] was 3.74 nM and the koff [14] was 0.00318 s⁻¹. For the same binder, the kon [14] was 851000 M⁻¹ s⁻¹.
